Only a part is listed here, and it is no random draw. Active and inactive are the calls of the source.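 The calls were made as follows: active = pattern-corrected inhibition above about 35%, with an unprinted fluorescence ratio check between 0.5 and 1.5 (limit read from the data, passing the limit was not always enough); inactive = the rest.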

Sequences of proteins named here, by UniProt entry; tags and fusion partners are left off.
UniProt Q92905, whole entry, looked up: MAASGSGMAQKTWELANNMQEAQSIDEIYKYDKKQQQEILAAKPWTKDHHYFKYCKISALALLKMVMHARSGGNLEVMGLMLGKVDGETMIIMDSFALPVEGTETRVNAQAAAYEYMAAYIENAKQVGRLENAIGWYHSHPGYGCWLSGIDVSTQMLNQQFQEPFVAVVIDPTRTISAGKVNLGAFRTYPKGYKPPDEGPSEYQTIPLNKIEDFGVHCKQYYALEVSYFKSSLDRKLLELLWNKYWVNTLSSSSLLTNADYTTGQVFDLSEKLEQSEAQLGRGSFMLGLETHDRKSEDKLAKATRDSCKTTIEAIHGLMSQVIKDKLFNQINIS

The assay has as its target COP9 signalosome complex subunit 5 (Homo sapiens) (UniProt Q92905). The experiment in a line: CSN5 deneddylase inhibitors on cullin-RING ligase – biochemical, fluorescence polarization, uHTS, primary screen (AID 651999).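 Also: 0% = enzyme with substrate and 100% = substrate without enzyme.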 The conditions noted are these: Purified CSN, SCF-Nedd8-OG deneddylation, at 12.5 µM, active compounds read high. The gist of the method: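 Assay system: Purified human Csn5 enzyme expressed in HEK293T cells | Amount: Enzyme 0.24 nM | Measured by: Fluorescence polarization readout | Medium: Tris/NaCl/DTT buffer, pH 7.5 | Compound dosing: One concentration, 12.5 µM, 0.25% DMSO | Times: 90 min incubation of compound, enzyme and substrate at room temperature | Control set: no-enzyme wells high, enzyme-with-substrate wells low | Read-out: % inhibition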
The inhibition is the drop in the measured response relative to a control, in per cent. As to `Cc1ccc(NCCc2c([N+](=O)[O-])cc([N+](=O)[O-])cc2[N+](=O)[O-])cc1`, the inhibition is inactive: 1%.
Take `CCCOP(=S)(Nc1nc(N)cc(=O)[nH]1)OCCC`: the inhibition was inactive: -2.92%.
Then `COc1cc(C2NCCC3(OCCO3)C2(C)C)cc(OC)c1OC` (configuration not stated), with inactive: 1.31%; and `CCOP(=O)(Nc1cccc2ccccc12)OCC`, with inactive: -3.55%.
For the compound `O=C(OC1CN2CCC1CC2)c1ccc(Cl)cc1` (configuration not stated), the inhibition is inactive: -1.58%.
Take `O=[As](O)(O)c1cccnc1`: the inhibition is inactive: -0.53%.
Then `COc1cc(C(=O)NCC2(N3CCOCC3)CCCCC2)cc(Cl)c1OC(C)C`, with inactive: -7.14%; and `CS(=O)(=O)c1ccc(Cl)c(NC(=O)COC(=O)C(O)(c2ccccc2)c2ccccc2)c1`, with inactive: -0.08%; and `Cc1cccc(OCC(=O)OC2CN3CCC2CC3)c1` (configuration not stated), with inactive: 1.26%.
Turning to `O=[As](O)(c1cccc(O)c1)c1cccc(O)c1`, the inhibition is inactive: 1.49%.
Then `COc1ccccc1CNC(=O)COC(=O)C(O)(c1ccccc1)c1ccccc1`, with inactive: 0.29%; and `CC(C)/C=N\N=C(\N)N[N+](=O)[O-]`, with inactive: 6.16%; and `CN(C(=O)Cc1ccc(Cl)c(Cl)c1)[C@@H]1CCCC[C@H]1N1CCCC1`, with inactive: 2.99%.
Then `CC1(CBr)Cn2c(nc3ccccc3c2=O)S1` (configuration not stated), with inactive: 2.12%; and `O=P1(Nc2ccccn2)COc2ccccc2OC1`, with inactive: 2.53%.
`CCC1=CC2Cc3nc4ccc(Cl)cc4c(N)c3C(C1)C2` (configuration not stated): the inhibition was inactive: 2.53%.
The figure for `CCOP(=O)(NC(=NC(C)c1ccccc1)NC(C)c1ccccc1)OCC` (configuration not stated) is inactive: 4.72%; for `CCOP(=O)(Nc1ccc(C)cn1)OCC` it is inactive: 2.89%; for `CN(CCCl)Cc1cc(Cl)c(NC2=NCCN2)c(Cl)c1` it is inactive: 5.03%.
The figure for `O=P1(N(CCCl)CCCl)NCCC(C(F)(F)F)O1` (configuration not stated) is inactive: 0.53%; for `Clc1n[nH]nc1-c1nn[nH][15n]1` it is inactive: 8.07%; for `CC(C)(C)C(=O)NC(Sc1ncccn1)C(Cl)(Cl)Cl` (configuration not stated) it is inactive: 1.11%.
For `Cc1ccc(S(=O)(=O)N(CCCN)CCCc2c(C)nc(N)[nH]c2=O)cc1`, the inhibition was inactive: -0.27%.
The figure for `O=P1(Nc2ncccn2)COc2ccccc2OC1` is inactive: -0.1%; for `Nc1cccc([As](=O)(O)c2ccccc2)c1` it is inactive: -4.23%; for `O=[As](O)(c1cccs1)c1cccs1` it is inactive: 5.25%.
The figure for `Cc1ccc(OCC(=O)OC2CN3CCC2CC3)cc1` (configuration not stated) is inactive: 6.48%; for `O=P1(Nc2ccc(Br)cn2)COc2ccccc2OC1` it is inactive: 0.62%; for `NS(=O)(=O)c1cccc(NC(=O)COC(=O)C(O)(c2ccccc2)c2ccccc2)c1` it is inactive: 2.78%.
Then `Cc1nn(-c2ccccc2)c2c1P(=O)(N1CCOCC1)N(C)C(c1ccccc1)=N2` (configuration not stated), with inactive: -1.92%; and `CC1CCC(C(C)C)C(OP(=O)(Nc2ccccn2)c2ccccc2)C1` (configuration not stated), with inactive: 5.88%.
In the case of `Cc1ccc(C(=O)OC2CN3CCC2CC3)cc1` (configuration not stated), the inhibition was inactive: 2.9%.
Then `CN(C)C1(CNC(=O)c2ccc(S(C)(=O)=O)cc2)CCCCC1`, with inactive: -5.89%; and `O=C(/C=C/c1ccccc1)OC1CN2CCC1CC2` (configuration not stated), with inactive: 5.83%; and `CCCC1OP(=O)(Nc2ccccc2)OCC1CC` (configuration not stated), with inactive: -5.03%.
Then `CCOC(=O)Nc1cccc([As](=O)(O)O)c1`, with inactive: 0.17%.
For `O=P(Nc1ccccn1)(c1cccc2ccccc12)c1cccc2ccccc12`, the inhibition was inactive: -16.9%.
`Cc1cc(SC(NC=O)C(Cl)(Cl)Cl)ncn1` (configuration not stated): the inhibition was inactive: 2.09%.
The figure for `O=[N+]([O-])c1ccc(Nc2ccc(Oc3ccc([N+](=O)[O-])cc3[N+](=O)[O-])cc2)c([N+](=O)[O-])c1` is inactive: -1.11%.
The figure for `CCOC(=O)Nc1ccc([As](=O)(O)O)c(O)c1` is inactive: -0.94%; for `O=C(O)C(O)c1ccc(N(CCCl)CCCl)cc1` (configuration not stated) it is inactive: 8.52%; for `CC1CCNP(=O)(N(CCCl)CCCl)O1` (configuration not stated) it is inactive: -1.67%.
As for `COP(=O)(OC)N1CC1c1ccccc1` (configuration not stated), the inhibition was inactive: 0.01%.
Take `CCCCOc1ccc(C(=O)NCC2(N3CCCCC3)CCCCC2)cc1OC`: the inhibition is inactive: 1.88%.
Then `Cc1cc(SC(NC(=O)c2ccccc2)C(Cl)(Cl)Cl)nc(C(C)C)n1` (configuration not stated), with inactive: -7.52%.
Regarding `O=C(OC1CN2CCC1CC2)c1cccc([N+](=O)[O-])c1` (configuration not stated), the inhibition was inactive: -1.42%.
As for `CSc1ccc(Nc2c([N+](=O)[O-])cc([N+](=O)[O-])cc2[N+](=O)[O-])cc1`, the inhibition is inactive: -4.46%.
For `CCOC(=O)c1ccc(NC(=O)C(C)(CCl)SC)cc1` (configuration not stated), the inhibition was inactive: 3.48%.
Then `CCC(C)N(CC(C)C)C(=S)SC(NC(C)=O)C(Cl)(Cl)Cl` (configuration not stated), with inactive: -1.3%; and `COP1(=S)c2c(C)nn(CCC#N)c2N=C(c2ccc(F)cc2)N1C` (configuration not stated), with inactive: 3.09%.
Then `COC(=O)C1(C)COP(=O)(N2CCCC2)OC1` (configuration not stated), with inactive: -3.93%; and `O=C(O)C(=O)c1ccc(N(CCCl)CCCl)cc1`, with inactive: 0.22%; and `O=C(COc1ccccc1)OC1CN2CCC1CC2` (configuration not stated), with inactive: -0.29%.
In the case of `O=C(Nc1ccncc1[N+](=O)[O-])c1ccc([N+](=O)[O-])cc1[N+](=O)[O-]`, the inhibition was inactive: 0.33%.
For `O=[N+]([O-])c1cc(Oc2ccc([N+](=O)[O-])cc2C(F)(F)F)cc([N+](=O)[O-])c1`, the inhibition is inactive: -1.91%.
Regarding `COc1ccc(N/C(=N/P(=O)(N2CCOCC2)N2CCOCC2)N2CCOCC2)cc1`, the inhibition is inactive: -5.6%.
The figure for `Cc1c2c(nc3ccccc13)SC(C(Cl)Cl)C2` (configuration not stated) is inactive: 2.53%; for `O=C(OC1CN2CCC1CC2)C12CC3CC(CC(C3)C1)C2` (configuration not stated) it is inactive: 4.52%.
Then `Cc1cc(=O)[nH]c(N[N+](=O)[O-])n1`, with inactive: 0.18%; and `O=P1(N(CCCl)CCCl)OCCCN1CCCl` (configuration not stated), with inactive: -3.43%.
Turning to `O=P1(N(CCCl)CCCl)Nc2ccccc2N1`, the inhibition is inactive: -0.91%.
The figure for `COc1ccc2nc(NP(=O)(c3ccccc3)c3ccccc3)sc2c1` is inactive: 1.17%.
Turning to `COc1cc(I)ccc1[As](=O)(O)O`, the inhibition was inactive: 7.3%.
The figure for `ClCCSc1nnc(-c2cccnc2)o1` is inactive: -1.74%; for `COC(=O)C1(C)COP(=O)(N2CCCCCC2)OC1` (configuration not stated) it is inactive: 1.84%.
In the case of `CC(C)c1ccc(OP(=O)(Nc2ccccn2)Oc2ccccc2F)cc1` (configuration not stated), the inhibition was inactive: -1.95%.
`CC(C)NC(=O)NP(=O)(Oc1ccccc1)Oc1ccccc1`: the inhibition is inactive: -9.4%.
The figure for `O=C(OC1CN2CCC1CC2)c1cccc2[nH]cnc12` (configuration not stated) is inactive: 3.06%; for `CCN(CC)C(=S)SC(NC=O)C(Cl)(Cl)Cl` (configuration not stated) it is inactive: 0.88%; for `O=[N+]([O-])c1cc([N+](=O)[O-])c(-c2ccn[nH]2)s1` it is inactive: 2.52%.
Then `O=[As](O)(c1ccc(O)cc1)c1ccccc1O`, with inactive: -0.52%; and `C[As](=O)(O)c1cccc(C(=O)O)c1`, with inactive: 4.54%.
The figure for `O=[N+]([O-])c1ccc(-c2cc([N+](=O)[O-])c(O)c([N+](=O)[O-])c2)cc1` is inactive: 5.42%; for `COc1cc(C(=O)NCC2(N3CCOCC3)CCCCC2)ccc1OCC(C)C` it is inactive: -4.31%.
With `[N-]=[N+]=NC1CCCCC1NC(=O)c1cc([N+](=O)[O-])cc([N+](=O)[O-])c1` (configuration not stated), the inhibition is inactive: 2.07%.
The figure for `Cc1ccc(OP(=O)(Nc2ccc([N+](=O)[O-])cn2)Oc2ccc(C)cc2)cc1` is inactive: -1.27%.
The figure for `Cc1ccc2nc3c(c(C)c2c1)CC(C(Cl)Cl)S3` (configuration not stated) is inactive: -2.51%.

Source of the values: PubChem BioAssay AID651999 (Sanford-Burnham Center for Chemical Genomics, 2013).
